# Measurements as given in paper PMC11149885 (PLOS ONE, 2024).
# What was measured:
# [1] = Rabbit Choroid, 600 ug, cited from earlier work
# [2] = NHP Choroid/RPE, 600 ug, cited from earlier work
# synthetic melanin = test: in vitro
structure (smiles),measurement,setting,value
CNC(=O)c1ccccc1Sc1ccc2c(/C=C/c3ccccn3)n[nH]c2c1 [Axitinib],"Concentration, choroid",[1]; 14 days post-treatment,200 µg/g
same,"Concentration, choroid",[1]; 28 days post-treatment,650 µg/g
same,"Concentration, choroid",[1]; 60 days post-treatment,1300 µg/g
same,"Concentration, choroid",[1]; 84 days post-treatment,5000 µg/g
same,"Concentration, choroid/RPE",[2]; 90 days post-treatment,960 µg/g
same,"Concentration, choroid/RPE",[2]; 180 days post-treatment,4000 µg/g
same,"Concentration, choroid/RPE",[2]; 270 days post-treatment,3040 µg/g
same,fraction unbound at 1 h,synthetic melanin,0.959

# Like-named read-outs stand apart in the source and are kept apart here.
